Data: paper PMC10531346, “Structural Similarities and Overlapping Activities among Dihydroflavonol 4-Reductase, Flavanone 4-Reductase, and Anthocyanidin Reductase Offer Metabolic Flexibility in the Flavonoid Pathway” (International Journal of Molecular Sciences, 2023)

Tests used:
Assay in all cases: purified protein, by the assay type
[1] = tested on: O=C1c2c(O)cc(O)cc2O[C@H](c2ccc(O)cc2)[C@H]1O; conditions: other: NADPH 2 mM, pH 7.0, 25 °C, 25.0 °C
NADH = conditions: other: cofactor varied 5 to 500 µM, DHQ constant at 1 mM; pH 7.0
NADPH = conditions: other: cofactor varied 5 to 500 µM, DHQ constant at 1 mM; pH 7.0

Q: With PvDFRa WT (Panicum virgatum) as the substance, how does the Km [1] read?
A: The Km was 191.2 ± 31.4 µM.

Q: What about the Km (NADH) of the same substance?
A: Its Km is 190.6 µM⁻¹.

Q: What about the kcat (NADH) of the same substance?
A: Its kcat is 0.05158 s⁻¹.

Q: What about the Km (NADPH) of the same substance?
A: Its Km is 115.4 µM⁻¹.

Q: What about the kcat (NADPH) of the same substance?
A: Its kcat is 0.0651 s⁻¹.
